{"sequences": {"note": "The chains behind the UniProt entries cited, without tags or fusion partners. Residues count along the entry.", "UniProt P25774, 115-331": "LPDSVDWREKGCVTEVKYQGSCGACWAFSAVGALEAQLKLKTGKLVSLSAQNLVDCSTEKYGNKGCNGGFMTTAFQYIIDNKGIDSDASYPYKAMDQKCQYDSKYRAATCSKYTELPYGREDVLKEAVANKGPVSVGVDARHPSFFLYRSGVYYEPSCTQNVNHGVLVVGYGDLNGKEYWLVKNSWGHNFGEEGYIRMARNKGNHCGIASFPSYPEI"}, "source": "patent US20090099157A1", "about": "“TETRAHYDRO-PYRAZOLO-PYRIDINE THIOETHER MODULATORS OF CATHEPSIN S” (priority 2007, published 2009)", "data": [{"biological_target": "Recombinant human cathepsin S (CatS) (Homo sapiens, UniProt P25774)", "experiment": "biochemical", "units": {"IC50": "nM"}, "values": [{"smiles": "CS(=O)(=O)N1CCc2c(c(-c3ccc(C(F)(F)F)c(SCCN4CCCC(F)C4)c3)nn2CCCN2CCC(N3CCCC3=O)CC2)C1", "note": "(stereo not drawn) [Example 17, 1-{1-[3-(3-{3-[2-(3-Fluoro-piperidin-1-yl)-ethylsulfanyl]-4-trifluoromethyl-phenyl}-5-methanesulfonyl-4,5,6,7-tetrahydro-pyrazolo[4,3-c]pyridin-1-yl)-propyl]-piperidin-4-yl}-pyrrolidin-2-one]", "IC50": 170}, {"smiles": "CN(C)c1ccc2c(n1)n(C1CCN(CC(O)Cn3nc(-c4ccc(C(F)(F)F)c(SCCN5CCOCC5)c4)c4c3CCN(S(C)(=O)=O)C4)CC1)c(=O)n2C", "note": "(stereo not drawn) [Example 180, 5-(Dimethylamino)-3-(1-{2-hydroxy-3-[5-(methylsulfonyl)-3-{3-[(2-morpholin-4-ylethyl)sulfanyl]-4-(trifluoromethyl)phenyl}-4,5,6,7-tetrahydro-1H-pyrazolo[4,3-c]pyridin-1-yl]propyl}piperidin-4-yl)-1-methyl-1,3-dihydro-2H-imidazo[4,5-b]pyridin-2-one]", "IC50": 30}, {"smiles": "COc1ccccc1C1CCN(CC(O)Cn2nc(-c3ccc(C(F)(F)F)c(SCC(=O)N4CCOCC4)c3)c3c2CCN(C(C)=O)C3)CC1", "note": "(stereo not drawn) [Example 277, 1-(5-Acetyl-3-{3-[(2-morpholin-4-yl-2-oxoethyl)sulfanyl]-4-(trifluoromethyl)phenyl}-4,5,6,7-tetrahydro-1H-pyrazolo[4,3-c]pyridin-1-yl)-3-{4-[2-(methyloxy)phenyl]piperidin-1-yl}propan-2-ol]", "IC50": 20}, {"smiles": "CS(=O)(=O)N1CCc2c(c(-c3ccc(C(F)(F)F)c(SCC(=O)N4CCC(c5ccccc5)CC4)c3)nn2CCCN2CCC(N3CCCC3=O)CC2)C1", "note": "[Example 100, 1-{1-[3-(5-Methanesulfonyl-3-{3-[2-oxo-2-(4-phenyl-piperidin-1-yl)-ethylsulfanyl]-4-trifluoromethyl-phenyl}-4,5,6,7-tetrahydro-pyrazolo[4,3-c]pyridin-1-yl)-propyl]-piperidin-4-yl}-pyrrolidin-2-one]", "IC50": 230}, {"smiles": "CS(=O)(=O)N1CCc2c(c(-c3ccc(C(F)(F)F)c(SCCN4CCCCC4)c3)nn2CC(O)CN2CCC(n3cn[nH]c3=O)CC2)C1", "note": "(stereo not drawn) [Example 678, 4-(1-{2-Hydroxy-3-[5-(methylsulfonyl)-3-{3-[(2-piperidin-1-ylethyl)sulfanyl]-4-(trifluoromethyl)phenyl}-4,5,6,7-tetrahydro-1H-pyrazolo[4,3-c]pyridin-1-yl]propyl}piperidin-4-yl)-2,4-dihydro-3H-1,2,4-triazol-3-one]", "IC50": 70}, {"smiles": "CS(=O)(=O)N1CCc2c(c(-c3ccc(C(F)(F)F)c(SCCN4CCC(F)CC4)c3)nn2C[C@@H](O)CN2C=NCCC2)C1", "note": "[Example 394, (2S)-1-(5,6-Dihydropyrimidin-1(4H)-yl)-3-{3-[3-{[2-(4-fluoropiperidin-1-yl)ethyl]sulfanyl}-4-(trifluoromethyl)phenyl]-5-(methylsulfonyl)-4,5,6,7-tetrahydro-1H-pyrazolo[4,3-c]pyridin-1-yl}propan-2-ol]", "IC50": 310}, {"smiles": "CS(=O)(=O)N1CCc2c(c(-c3ccc(C(F)(F)F)c(SCC(=O)N4CCCCCC4)c3)nn2CCCN2CCC(N3CCCC3=O)CC2)C1", "note": "[Example 95, 1-[1-(3-{3-[3-(2-Azepan-1-yl-2-oxo-ethylsulfanyl)-4-trifluoromethyl-phenyl]-5-methanesulfonyl-4,5,6,7-tetrahydro-pyrazolo[4,3-c]pyridin-1-yl}-propyl)-piperidin-4-yl]-pyrrolidin-2-one]", "IC50": 70}, {"smiles": "CS(=O)(=O)N1CCc2c(c(-c3ccc(C(F)(F)F)c(SCCN4CCC(F)CC4)c3)nn2CC(O)CN2CCC[C@@H](C(=O)O)C2)C1", "note": "(stereo partly drawn) [Example 613, (3R)-1-(3-{3-[3-{[2-(4-Fluoropiperidin-1-yl)ethyl]sulfanyl}-4-(trifluoromethyl)phenyl]-5-(methylsulfonyl)-4,5,6,7-tetrahydro-1H-pyrazolo[4,3-c]pyridin-1-yl}-2-hydroxypropyl)piperidine-3-carboxylic acid]", "IC50": 320}, {"smiles": "CS(=O)(=O)N1CCc2c(c(-c3ccc(C(F)(F)F)c(SCC(=O)N4CCOCC4)c3)nn2CC(O)CN2CCN(c3ncccc3Cl)CC2)C1", "note": "(stereo not drawn) [Example 848, 1-[4-(3-Chloropyridin-2-yl)piperazin-1-yl]-3-[5-(methylsulfonyl)-3-{3-[(2-morpholin-4-yl-2-oxoethyl)sulfanyl]-4-(trifluoromethyl)phenyl}-4,5,6,7-tetrahydro-1H-pyrazolo[4,3-c]pyridin-1-yl]propan-2-ol]", "IC50": 10}, {"smiles": "CC1(O)CCN(CCSc2cc(-c3nn(C[C@@H](O)CN4CCCCC4)c4c3CN(S(C)(=O)=O)CC4)ccc2C(F)(F)F)CC1", "note": "[Example 217, 1-(2-{[5-{1-[(2S)-2-Hydroxy-3-piperidin-1-ylpropyl]-5-(methylsulfonyl)-4,5,6,7-tetrahydro-1H-pyrazolo[4,3-c]pyridin-3-yl}-2-(trifluoromethyl)phenyl]sulfanyl}ethyl)-4-methylpiperidin-4-ol]", "IC50": 810}, {"smiles": "CS(=O)(=O)N1CCc2c(c(-c3ccc(C(F)(F)F)c(SCCNCc4ccccc4)c3)nn2CCCN2CCC(N3CCCC3=O)CC2)C1", "note": "[Example 29, 1-[1-(3-{3-[3-(2-Benzylamino-ethylsulfanyl)-4-trifluoromethyl-phenyl]-5-methanesulfonyl-4,5,6,7-tetrahydro-pyrazolo[4,3-c]pyridin-1-yl}-propyl)-piperidin-4-yl]-pyrrolidin-2-one]", "IC50": 700}, {"smiles": "CS(=O)(=O)N1CCc2c(c(-c3ccc(C(F)(F)F)c(SCCN4CCOCC4)c3)nn2CC(O)CN2CCN(c3ccccc3C#N)CC2)C1", "note": "(stereo not drawn) [Example 183, 2-(4-{2-Hydroxy-3-[5-(methylsulfonyl)-3-{3-[(2-morpholin-4-ylethyl)sulfanyl]-4-(trifluoromethyl)phenyl}-4,5,6,7-tetrahydro-1H-pyrazolo[4,3-c]pyridin-1-yl]propyl}piperazin-1-yl)benzonitrile]", "IC50": 10}, {"smiles": "CCN(CC)C(=O)C1CCN(C(=O)CSc2cc(-c3nn(CCCN4CCC(N5CCCC5=O)CC4)c4c3CN(S(C)(=O)=O)CC4)ccc2C(F)(F)F)CC1", "note": "[Example 107, 1-{2-[5-(5-Methanesulfonyl-1-{3-[4-(2-oxo-pyrrolidin-1-yl)-piperidin-1-yl]-propyl}-4,5,6,7-tetrahydro-1H-pyrazolo[4,3-c]pyridin-3-yl)-2-trifluoromethylphenylsulfanyl]-acetyl}-piperidine-4-carboxylic acid diethylamide]", "IC50": 280}, {"smiles": "O=C(CO)NC1CCN(C[C@H](O)Cn2nc(-c3ccc(C(F)(F)F)c(SCCN4CCC(F)CC4)c3)c3c2CCNC3)CC1", "note": "[Example 375, N-{1-[(2S)-3-{3-[3-{[2-(4-Fluoropiperidin-1-yl)ethyl]sulfanyl}-4-(trifluoromethyl)phenyl]-4,5,6,7-tetrahydro-1H-pyrazolo[4,3-c]pyridin-1-yl}-2-hydroxypropyl]piperidin-4-yl}-2-hydroxyacetamide]", "IC50": 1360}, {"smiles": "CS(=O)(=O)N1CCc2c(c(-c3ccc(C(F)(F)F)c(SCC(=O)N4CCOCC4)c3)nn2CC(O)CN2CCC(c3ccncc3)CC2)C1", "note": "(stereo not drawn) [Example 714, 1-[5-(Methylsulfonyl)-3-{3-[(2-morpholin-4-yl-2-oxoethyl)sulfanyl]-4-(trifluoromethyl)phenyl}-4,5,6,7-tetrahydro-1H-pyrazolo[4,3-c]pyridin-1-yl]-3-(4-pyridin-4-ylpiperidin-1-yl)propan-2-ol]", "IC50": 20}, {"smiles": "CC(=O)N1CCc2c(c(-c3ccc(C(F)(F)F)c(SCC(=O)N4CCCC4)c3)nn2CC(O)CN2CCC3(CC2)OCCO3)C1", "note": "(stereo not drawn) [Example 423, 1-(5-Acetyl-3-{3-[(2-oxo-2-pyrrolidin-1-ylethyl)sulfanyl]-4-(trifluoromethyl)phenyl}-4,5,6,7-tetrahydro-1H-pyrazolo[4,3-c]pyridin-1-yl)-3-(1,4-dioxa-8-azaspiro[4.5]dec-8-yl)propan-2-ol]", "IC50": 200}, {"smiles": "CC1(O)CCN(C[C@H](O)Cn2nc(-c3ccc(C(F)(F)F)c(SCCN4CCCC(F)C4)c3)c3c2CCN(S(C)(=O)=O)C3)CC1", "note": "(stereo partly drawn) [Example 568, 1-[(2S)-3-{3-[3-{[2-(3-Fluoropiperidin-1-yl)ethyl]sulfanyl}-4-(trifluoromethyl)phenyl]-5-(methylsulfonyl)-4,5,6,7-tetrahydro-1H-pyrazolo[4,3-c]pyridin-1-yl}-2-hydroxypropyl]-4-methylpiperidin-4-ol]", "IC50": 550}, {"smiles": "O=C(CO)N1CCc2c(c(-c3ccc(C(F)(F)F)c(SCCN4CCCC(O)C4)c3)nn2CC(O)CN2CCC(N3CCCC3=O)CC2)C1", "note": "(stereo not drawn) [Example 671, 1-[1-(2-Hydroxy-3-{5-(hydroxyacetyl)-3-[3-{[2-(3-hydroxypiperidin-1-yl)ethyl]sulfanyl}-4-(trifluoromethyl)phenyl]-4,5,6,7-tetrahydro-1H-pyrazolo[4,3-c]pyridin-1-yl}propyl)piperidin-4-yl]pyrrolidin-2-one]", "IC50": 120}, {"smiles": "CS(=O)(=O)N1CCc2c(c(-c3ccc(C(F)(F)F)c(SCC(=O)N4CCOCC4)c3)nn2CC(O)CN2CCC(n3cn[nH]c3=O)CC2)C1", "note": "(stereo not drawn) [Example 751, 4-(1-{2-Hydroxy-3-[5-(methylsulfonyl)-3-{3-[(2-morpholin-4-yl-2-oxoethyl)sulfanyl]-4-(trifluoromethyl)phenyl}-4,5,6,7-tetrahydro-1H-pyrazolo[4,3-c]pyridin-1-yl]propyl}piperidin-4-yl)-2,4-dihydro-3H-1,2,4-triazol-3-one]", "IC50": 30}, {"smiles": "CC1(O)CCN(C[C@H](O)Cn2nc(-c3ccc(C(F)(F)F)c(SCCN4CC[C@H](F)C4)c3)c3c2CCN(S(C)(=O)=O)C3)CC1", "note": "[Example 484, 1-[(2S)-3-{3-[3-({2-[(3S)-3-Fluoropyrrolidin-1-yl]ethyl}sulfanyl)-4-(trifluoromethyl)phenyl]-5-(methylsulfonyl)-4,5,6,7-tetrahydro-1H-pyrazolo[4,3-c]pyridin-1-yl}-2-hydroxypropyl]-4-methylpiperidin-4-ol]", "IC50": 1580}, {"smiles": "CS(=O)(=O)N1CCc2c(c(-c3ccc(C(F)(F)F)c(SCCN4CCCC(CO)C4)c3)nn2CC(O)CN2CCC(N3CCCC3=O)CC2)C1", "note": "(stereo not drawn) [Example 810, 1-[1-(2-Hydroxy-3-{3-[3-({2-[3-(hydroxymethyl)piperidin-1-yl]ethyl}sulfanyl)-4-(trifluoromethyl)phenyl]-5-(methylsulfonyl)-4,5,6,7-tetrahydro-1H-pyrazolo[4,3-c]pyridin-1-yl}propyl)piperidin-4-yl]pyrrolidin-2-one]", "IC50": 70}]}]}
